Measurements taken from publication PMC5385157 (Neuropharmacology, 2016).

By UniProt entry, the sequences of proteins in these tests, tags left out.
UniProt Q01338, whole entry: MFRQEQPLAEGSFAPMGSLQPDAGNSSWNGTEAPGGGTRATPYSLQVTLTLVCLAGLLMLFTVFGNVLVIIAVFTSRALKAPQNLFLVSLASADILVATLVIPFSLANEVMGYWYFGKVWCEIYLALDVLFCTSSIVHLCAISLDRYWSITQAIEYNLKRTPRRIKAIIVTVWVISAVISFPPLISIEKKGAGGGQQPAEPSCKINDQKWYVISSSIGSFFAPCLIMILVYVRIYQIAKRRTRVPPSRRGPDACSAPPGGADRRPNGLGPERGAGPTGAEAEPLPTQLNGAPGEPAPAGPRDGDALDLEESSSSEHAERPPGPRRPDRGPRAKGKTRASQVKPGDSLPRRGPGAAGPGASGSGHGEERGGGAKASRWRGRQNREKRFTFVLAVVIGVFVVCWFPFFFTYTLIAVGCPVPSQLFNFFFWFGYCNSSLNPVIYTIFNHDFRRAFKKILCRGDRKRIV

Tests used:
α2AAR/Arr3 interaction = α2AAR/Arr3 interaction (Mus musculus, UniProt Q01338); details: 1 µM, live HEK 293 cells
HA-α2AAR [1] = biological target: T1, HA-α2AAR (Mus musculus, UniProt Q01338); details: 1 µM, 30 min
HA-α2AAR [2] = biological target: T1, HA-α2AAR; details: 1 µM, WT MEF cells

OCCN1CCN(CCCN2c3ccccc3Sc3ccc(C(F)(F)F)cc32)CC1 [Fluphenazine, fluphenazine]
α2AAR/Arr3 interaction (FLIM-FRET efficiency) (α2AAR/Arr3 interaction): robust α2AAR/Arr3 interaction
α2AAR endocytosis (intracellular punctae) (HA-α2AAR [1]): failed to induce detectable endocytosis
receptor loss from the cell surface (HA-α2AAR [2]): failed to induce detectable endocytosis
